For series [1] the following is noted: data not shown.
The subject of series [2] is CLL cells. The conditions noted are these: ex vivo; data not shown.
Series [3] deals with human whole blood or CLL cells. The conditions noted are these: within human whole blood or in CLL cells ex vivo; data not shown.

Regarding flavopiridol glucuronide [flavo-G], the “Flavo-G deposited into urine as share of total dose of flavopiridol” value in series [1] is listed as “less than 5%”. Further, in series [2], the “Cytotoxicity to CLL cells” value is “not cytotoxic”. In addition, the Formation of metabolites result in series [3] is “nor were these metabolites formed at detectable levels”.

These data come from publication PMC3845832 (Clinical cancer research : an official journal of the …, 2013).
